# Binding of CDR-mutated scFvs to a peptide of the spike HR2 region

The measurements come from Engelhart et al. 2022 (doi:10.1038/s41597-022-01779-4) through the FLAb antibody collection.

All variants were tested on one target, the spike HR2 peptide PDVDLGDISGINAS (SARS-CoV-2).

The variants keep the light chain, the linker and the frameworks of Ab-14 (scFv order VH, a (GGGGS)3 linker, VL).
VH: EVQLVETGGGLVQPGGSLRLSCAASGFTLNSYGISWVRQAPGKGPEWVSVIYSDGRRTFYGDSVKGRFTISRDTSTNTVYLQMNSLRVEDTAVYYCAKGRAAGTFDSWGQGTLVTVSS
VL: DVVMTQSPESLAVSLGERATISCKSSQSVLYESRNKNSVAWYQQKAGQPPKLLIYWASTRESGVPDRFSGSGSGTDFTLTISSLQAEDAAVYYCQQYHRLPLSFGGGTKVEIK

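Phage display of a naive human antibody library on the peptide gave the parent. The library (AAYL49) carries one to three amino acid substitutions per variant, with no insertions or deletions. Affinity was read by AlphaSeq, a pooled yeast mating assay with surface-displayed partners. After mating in shaken culture at 30 °C for 16 h, diploids were selected and their barcode pairs sequenced. The ratio of observed to expected reads was calibrated, replicate by replicate, on BCL2-family standards whose Kd was known from biolayer interferometry. Mating was done three times.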

Each variant's VH is given in full. Scale: log10 of Kd in nM, estimated from mating counts; low values are strong binders. A mean of the replicates is given; it leaves out those without a signal. A pair that was not seen in that replicate is written "n.d."; this usually means weak binding, but a binder can also be missed. Background: pairings of library AAYL49 with three empty control strains gave a value in 15% of cases (median 4.06, 5th percentile 2.83). Values in that range, when seen in few replicates, are hard to tell from nonspecific mating. Also given: how often the same scFv was detected with the empty control strains, with their mean in brackets.

VH,log10 Kd (nM) by replicate,"mean, log10 nM",control signals
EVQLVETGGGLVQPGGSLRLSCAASGFTLWSYGISWVRQAPGKGPEWVSVIYSDGRCTFYPDSVKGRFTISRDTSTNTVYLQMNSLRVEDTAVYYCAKGRAAGTFDSWGQGTLVTVSS,n.d. / n.d. / n.d.,n.d.,0 of 9
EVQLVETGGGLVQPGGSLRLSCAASGFTLNSYIISWVRQAPGKGPEWVSVIYSDGRRTFYGDSVKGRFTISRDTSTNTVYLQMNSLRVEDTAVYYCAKGRAAGPFDSWGQGTLVTVSS,n.d. / 2.98 / 4.30,3.64,2 of 9 (3.94)
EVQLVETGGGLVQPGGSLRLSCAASGFTLNSYGISWVRQAPGKGPEWVSVIYSDGRRTFYGDSVKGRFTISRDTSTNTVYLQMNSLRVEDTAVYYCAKCRAEGTFDSWGQGTLVTVSS,n.d. / n.d. / n.d.,n.d.,2 of 9 (3.74)
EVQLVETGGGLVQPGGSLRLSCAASGFTLNSYNISWVRQAPGKGPEWVSVIYSVGRRTFYGYSVKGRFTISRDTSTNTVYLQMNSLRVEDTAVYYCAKGRAAGTFDSWGQGTLVTVSS,n.d. / n.d. / n.d.,n.d.,0 of 9
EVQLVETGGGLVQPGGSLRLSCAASGFTLNSYGESWVRQAPGKGPEWVSVIYSDGERTFYGDCVKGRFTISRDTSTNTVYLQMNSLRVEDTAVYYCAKGRAAGTFDSWGQGTLVTVSS,n.d. / n.d. / n.d.,n.d.,1 of 9 (3.53)
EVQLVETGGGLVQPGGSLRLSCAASGFTLNSYGISWVRQAPGKGPEWVSVIYSDGRRTFWGDSVKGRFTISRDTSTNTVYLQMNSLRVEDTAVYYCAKGRAAGTCDSWGQGTLVTVSS,3.75 / 3.51 / 4.90,4.05,4 of 9 (4.16)
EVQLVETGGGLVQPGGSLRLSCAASGFTLNSYGIEWVRQAPGKGPEWVSVIYSDGRRTFYGDSVLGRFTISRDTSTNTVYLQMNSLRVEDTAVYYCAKGRAAGTFDLWGQGTLVTVSS,n.d. / n.d. / n.d.,n.d.,0 of 9
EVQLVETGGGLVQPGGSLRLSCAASGFPLNSYGISWVRQAPGKGPEWVSVLYSDGRRTFYGDSVKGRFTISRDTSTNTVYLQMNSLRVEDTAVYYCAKGRNAGTFDSWGQGTLVTVSS,0.64 / 0.84 / 0.78,0.75,5 of 9 (4.92)
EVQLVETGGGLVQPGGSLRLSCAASGFTLNSYGISWVRQAPGKGPEWVSVIYSDGRRTFYGDSVDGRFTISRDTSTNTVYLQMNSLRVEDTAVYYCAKGRAAGTQDTWGQGTLVTVSS,n.d. / n.d. / 4.25,4.25,2 of 9 (4.55)
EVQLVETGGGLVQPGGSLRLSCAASGFYLNSYGISWVRQAPGKGPEWVSVIYSDGRRTFYGDSVKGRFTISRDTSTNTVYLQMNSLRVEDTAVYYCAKGRARGTFMSWGQGTLVTVSS,n.d. / n.d. / n.d.,n.d.,1 of 9 (4.52)
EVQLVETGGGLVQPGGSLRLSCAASGFTLNSVGISWVRQAPGKGPEWVSVKYSDGGRTFYGDSVKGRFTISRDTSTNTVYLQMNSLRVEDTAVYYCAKGRAAGTFDSWGQGTLVTVSS,n.d. / 2.79 / n.d.,2.79,0 of 9
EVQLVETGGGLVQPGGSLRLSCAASGFTLNGYGISWVRQAPGKGPEWVSTIYSDGRRTFYGDSVKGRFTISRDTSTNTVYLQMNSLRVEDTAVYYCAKQRAAGTFDSWGQGTLVTVSS,n.d. / n.d. / n.d.,n.d.,0 of 9
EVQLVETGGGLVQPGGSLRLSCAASGFTLNSHGISWVRQAPGKGPEWVSVEYSDGRRTFQGDSVKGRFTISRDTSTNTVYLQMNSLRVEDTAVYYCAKGRAAGTFDSWGQGTLVTVSS,n.d. / n.d. / 3.84,3.84,3 of 9 (3.81)
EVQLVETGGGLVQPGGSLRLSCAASGFTLNSDGISWVRQAPGKGPEWVSVIYSDGRRTFYTDSVKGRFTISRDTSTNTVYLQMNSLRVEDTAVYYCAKGRAAGTHDSWGQGTLVTVSS,n.d. / n.d. / n.d.,n.d.,2 of 9 (3.58)
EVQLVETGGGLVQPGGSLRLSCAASGRTLNSYGISWVRQAPGKGPEWVSVIYSDGRRTFYGHSMKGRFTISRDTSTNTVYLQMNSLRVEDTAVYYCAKGRAAGTFDSWGQGTLVTVSS,n.d. / n.d. / n.d.,n.d.,0 of 9
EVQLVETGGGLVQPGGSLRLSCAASGFTLNSYFISWVRQAPGKGPEWVSVIYSDMRRTFYGDSVKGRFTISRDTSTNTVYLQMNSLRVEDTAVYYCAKGRATGTFDSWGQGTLVTVSS,n.d. / n.d. / n.d.,n.d.,0 of 9
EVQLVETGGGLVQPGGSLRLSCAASGFTDNSSGISWVRQAPGKGPEWVSVIYDDGRRTFYGDSVKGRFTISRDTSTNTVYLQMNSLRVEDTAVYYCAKGRAAGTFDSWGQGTLVTVSS,3.75 / n.d. / 4.24,3.99,3 of 9 (4.37)
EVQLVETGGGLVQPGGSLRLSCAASGFTLNSYGISWVRQAPGKGPEWVSVIYSDGRHTFMGDSVKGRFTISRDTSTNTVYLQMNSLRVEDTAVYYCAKYRAAGTFDSWGQGTLVTVSS,n.d. / 4.93 / n.d.,4.93,1 of 9 (4.18)
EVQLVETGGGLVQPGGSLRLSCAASGFTLNSYGISWVRQAPGKGPEWVSVIYSDGFRTFYGDCVKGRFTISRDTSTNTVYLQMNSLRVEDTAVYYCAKGRAAGTFRSWGQGTLVTVSS,n.d. / n.d. / 3.28,3.28,2 of 9 (4.39)
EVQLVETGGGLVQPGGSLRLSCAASGFTLRSYGISWVRQAPGKGPEWVSVIYSDGRRTFYGDSVKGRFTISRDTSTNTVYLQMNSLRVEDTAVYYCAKGLAAGTFDSWGQGTLVTVSS,5.27 / 4.05 / 4.53,4.62,3 of 9 (3.77)
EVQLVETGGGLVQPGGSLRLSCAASGFTLNSYGISWVRQAPGKGPEWVSVIYSDGIRTFYGDSVKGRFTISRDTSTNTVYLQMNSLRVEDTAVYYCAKGRAMGTFDTWGQGTLVTVSS,0.30 / 0.89 / 0.72,0.64,0 of 9
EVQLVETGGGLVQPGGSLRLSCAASGFTLNMYAISWVRQAPGKGPEWVSVLYSDGRRTFYGDSVKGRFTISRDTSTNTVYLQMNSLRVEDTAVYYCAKGRAAGTFDSWGQGTLVTVSS,3.03 / n.d. / n.d.,3.03,0 of 9
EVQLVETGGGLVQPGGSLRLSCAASGFWLNSYGISWVRQAPGKGPEWVSVIYSDGRRTFYVDSVKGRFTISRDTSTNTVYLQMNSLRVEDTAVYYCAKGRAWGTFDSWGQGTLVTVSS,6.47 / 4.48 / n.d.,5.48,5 of 9 (4.44)
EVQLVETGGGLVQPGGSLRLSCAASGFRLNSYVISWVRQAPGKGPEWVSVIMSDGRRTFYGDSVKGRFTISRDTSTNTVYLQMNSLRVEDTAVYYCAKGRAAGTFDSWGQGTLVTVSS,5.27 / 4.83 / n.d.,5.05,3 of 9 (4.10)